Assay: Storage stability of sHDL nanodiscs
Type: physicochemical
Settings: DMPC sHDL stored at 4° C.

**Q.** With PVLDLFRELLNELLEALKQKLK [22A] as the sequence, how does the “stability of sHDL suspension formed with the peptide” value read?
**A.** Its value is “stable for one month”.
